Measurements: ChEMBL document CHEMBL1124221
This is a selection: effects in other tests are not listed, and their absence says nothing.

The chains behind the UniProt entries cited, without tags or fusion partners.
UniProt P41144, whole entry: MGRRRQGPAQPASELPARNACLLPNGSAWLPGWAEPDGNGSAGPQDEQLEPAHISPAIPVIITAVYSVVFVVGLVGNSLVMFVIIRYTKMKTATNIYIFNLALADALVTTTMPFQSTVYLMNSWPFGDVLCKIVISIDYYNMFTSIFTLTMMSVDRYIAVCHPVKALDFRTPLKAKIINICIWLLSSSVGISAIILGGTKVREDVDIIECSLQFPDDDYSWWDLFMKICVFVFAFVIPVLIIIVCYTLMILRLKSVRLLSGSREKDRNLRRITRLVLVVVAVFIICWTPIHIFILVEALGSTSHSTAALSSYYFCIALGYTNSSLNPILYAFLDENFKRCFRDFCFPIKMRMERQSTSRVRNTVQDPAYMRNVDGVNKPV
UniProt P97266, whole entry: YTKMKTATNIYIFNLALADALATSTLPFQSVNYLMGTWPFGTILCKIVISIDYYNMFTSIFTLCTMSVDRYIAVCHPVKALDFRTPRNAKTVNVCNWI

What was measured:
[1] = biological target: Kappa-type opioid receptor (Cavia porcellus, UniProt P41144); assay: Binding affinity for the Opioid receptor kappa 1
Mu-type opioid receptor = Mu-type opioid receptor (Cavia porcellus, UniProt P97266); assay: Binding affinity for the Opioid receptor mu 1
Rattus norvegicus [2] = assay: Dose (po) required to produce 50% of the maximum possible analgesic effect, evaluated by rat-paw pressure assay
Rattus norvegicus [3] = assay: Rat-paw pressure assay was measured maximum possible analgesic effect after sc administration
Rattus norvegicus [4] = assay: Dose (sc) required to produce 50% of the maximum possible analgesic effect, evaluated by rat-paw pressure assay

`CN(C(=O)COc1cc(Cl)c(Cl)c(Cl)c1Cl)[C@@H]1CCCC[C@H]1N1CCCCCCC1` was tested, and the Ki [1] was 0.0056 µM and the Ki (Mu-type opioid receptor) was 3.6 µM.
With `CN(C(=O)COc1cc(Cl)c(Cl)c(Cl)c1Cl)[C@@H]1CCCC[C@H]1N1CCCCCCC1.Cl` the MPE50 (Rattus norvegicus [2]) was greater than 300 mg/kg.
`CN(C(=O)COc1ccc([N+](=O)[O-])c(C(F)(F)F)c1)[C@@H]1CCCC[C@H]1N1CCCC1` showed a Ki [1] of 0.15 µM and a Ki (Mu-type opioid receptor) greater than 1 µM.
With `CN(C(=O)COc1cc(Cl)cc(Cl)c1)[C@@H]1CCCC[C@H]1N1CCCCCC1.Cl` the MPE50 (Rattus norvegicus [2]) was greater than 100 mg/kg.
`CN(C(=O)COc1cc(Cl)c(Cl)c(Cl)c1Cl)[C@@H]1CCCC[C@H]1N1CCCCCC1.Cl` was tested, and the MPE50 (Rattus norvegicus [2]) was greater than 300 mg/kg.
`Cc1cc(OCC(=O)N(C)[C@@H]2CCCC[C@H]2N2CCCCCC2)cc(C)c1Cl` was tested, and the Ki [1] was 0.004 µM and the Ki (Mu-type opioid receptor) was 0.46 µM.
`CN(C(=O)COc1cc(Cl)c(Cl)c(Cl)c1)[C@@H]1CCCC[C@H]1N1CCCCCCC1` showed a Ki [1] of 0.0031 µM and a Ki (Mu-type opioid receptor) of 0.88 µM.
`CN(C(=O)COc1c(Cl)cc(Cl)cc1Cl)[C@@H]1CCCC[C@H]1N1CCCC1` gave a Ki [1] greater than 10 µM and a Ki (Mu-type opioid receptor) greater than 10 µM.
`CN(C(=O)COc1ccccc1)[C@@H]1CCCC[C@H]1N1CCCC1` gave a Ki [1] of 0.36 µM and a Ki (Mu-type opioid receptor) greater than 1 µM.
`CN(C(=O)CCc1c[nH]c2ccccc12)[C@@H]1CCCC[C@H]1N1CCCC1` gave a Ki [1] greater than 1 µM and a Ki (Mu-type opioid receptor) greater than 1 µM.
For `CN(C(=O)COc1cc(Cl)cc(Cl)c1)[C@@H]1CCCC[C@H]1N1CCCCCC1`, the Ki [1] was 0.072 µM and the Ki (Mu-type opioid receptor) was 7.9 µM.
For `CN(C(=O)COc1c(Cl)cccc1Cl)[C@@H]1CCCC[C@H]1N1CCCC1`, the Ki [1] was 2.1 µM and the Ki (Mu-type opioid receptor) was 4 µM.
For `CN(C(=O)COc1cc(Cl)c(Cl)c(Cl)c1Cl)[C@@H]1CCCC[C@H]1N1CCCCCC1`, the Ki [1] was 0.0064 µM and the Ki (Mu-type opioid receptor) was 0.72 µM.
`CN(C(=O)COc1ccc(Cl)cc1)[C@@H]1CCCC[C@H]1N1CCCC1` was tested, and the Ki [1] was 0.3 µM and the Ki (Mu-type opioid receptor) was 2 µM.
`CN(C(=O)COc1ccc(Cl)c(Cl)c1)[C@@H]1CCCC[C@H]1N1CCCC1.Cl` was tested, and the MPE50 (Rattus norvegicus [3]) was 240 mg/kg.
Work on `CN(C(=O)COc1ccc(Cl)cc1)[C@@H]1CCCC[C@H]1N1CCCC1.Cl` yielded an MPE50 (Rattus norvegicus [2]) of 59 mg/kg and an MPE50 (Rattus norvegicus [4]) of 210 mg/kg.
For `CN(C(=O)COc1cc(Cl)c(Cl)c(Cl)c1)[C@@H]1CCCC[C@H]1N1CCCCCCC1.Cl`, the MPE50 (Rattus norvegicus [2]) was greater than 100 mg/kg.
`CN(C(=O)COc1ccc([N+](=O)[O-])c(C(F)(F)F)c1)[C@@H]1CCCC[C@H]1N1CCCC1.Cl` showed an MPE50 (Rattus norvegicus [2]) greater than 100 mg/kg.
`CN(C(=O)COc1c(Cl)cccc1Cl)[C@@H]1CCCC[C@H]1N1CCCC1.Cl` gave an MPE50 (Rattus norvegicus [2]) of 110 mg/kg.
With `CN(C(=O)COc1cc(Cl)c(Cl)c(Cl)c1)[C@@H]1CCCC[C@H]1N1CCCC1` the Ki [1] was 0.012 µM and the Ki (Mu-type opioid receptor) was 0.14 µM.
`CN(C(=O)COc1ccc(Cl)c(Cl)c1)[C@@H]1CCCC[C@H]1N1CCCC1` gave a Ki [1] of 0.035 µM and a Ki (Mu-type opioid receptor) of 0.62 µM.
